Measurements as given in publication PMC10118286 (Journal of medicinal chemistry, 2021).

Test system: CK1
Details: read-out: CK1 inhibitory profile (IC50); triplicate, mean ± SD

Compound: O=C(O)c1ccc2c(c1)nc(Nc1cccc(Cl)c1)c1ccncc12 [Compound 18, CX-4945, reference compound]
- IC50: > 10 µM
